{
  "source": "patent US20240180881A1",
  "about": "“METHODS FOR DECREASING RESISTANCE TO CHEMOTHERAPY” (National Institute of Immunology, priority 2022, published 2024)",
  "tested_on": "MDR genes (MRP2, MRP3, MRP5, MXR) in HCT116 IC60 CPTR cells",
  "settings": "100 nM compound alone, 72 hours",
  "data": [
    {"compound": "CN1CCN(C2=Nc3ccccc3Oc3ccc(Cl)cc32)CC1.O=C(O)CCC(=O)O", "note": "[C17, Loxapine succinate]", "values": [
      {"measurement": "transcript levels of MDR genes", "result": "do not alter the transcript levels of MDR genes"}
    ]}
  ]
}
